Target: purified recombinant CSL (UniProt Q06330, labelled with a RED-NHS protein labelling kit (NanoTemper))
Test: MST

Sequences of proteins named here, by UniProt entry; tags and fusion partners are left off. A change or cut given only in a name is not applied to a line headed by its entry.
UniProt Q06330: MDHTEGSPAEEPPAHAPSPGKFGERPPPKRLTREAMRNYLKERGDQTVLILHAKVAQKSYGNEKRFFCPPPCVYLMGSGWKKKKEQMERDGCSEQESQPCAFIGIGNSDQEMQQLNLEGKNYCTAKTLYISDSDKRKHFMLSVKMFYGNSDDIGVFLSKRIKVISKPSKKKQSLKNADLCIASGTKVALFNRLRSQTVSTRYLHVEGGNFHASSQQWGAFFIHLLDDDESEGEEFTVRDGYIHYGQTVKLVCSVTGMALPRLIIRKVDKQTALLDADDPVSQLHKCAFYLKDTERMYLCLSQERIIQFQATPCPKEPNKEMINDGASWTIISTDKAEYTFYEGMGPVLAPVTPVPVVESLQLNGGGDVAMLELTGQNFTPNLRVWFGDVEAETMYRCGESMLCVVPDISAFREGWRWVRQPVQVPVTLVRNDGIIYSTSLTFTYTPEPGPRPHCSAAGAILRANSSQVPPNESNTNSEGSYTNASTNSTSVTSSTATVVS

B1: purified recombinant Ku70 (natural protein)
chain: MSGWESYYKTEGDEEAEEEQEENLEASGDYKYSGRDSLIFLVDASKAMFESQSEDELTPFDMSIQCIQSVYISKIISSDRDLLAVVFYGTEKDKNSVNFKNIYVLQELDNPGAKRILELDQFKGQQGQKRFQDMMGHGSDYSLSEVLWVCANLFSDVQFKMSHKRIMLFTNEDNPHGNDSAKASRARTKAGDLRDTGIFLDLMHLKKPGGFDISLFYRDIISIAEDEDLRVHFEESSKLEDLLRKVRAKETRKRALSRLKLKLNKDIVISVGIYNLVQKALKPPPIKLYRETNEPVKTKTRTFNTSTGGLLLPSDTKRSQIYGSRQIILEKEETEELKRFDDPGLMLMGFKPLVLLKKHHYLRPSLFVYPEESLVIGSSTLFSALLIKCLEKEVAALCRYTPRRNIPPYFVALVPQEEELDDQKIQVTPPGFQLVFLPFADDKRKMPFTEKIMATPEQVGKMKAIVEKLRFTYRSDSFENPVLQQHFRNLEALALDLMEPEQAVDLTLPKVEAMNKRLGSLVDEFKELVYPPDYNPEGKVTKRKHDNEGSGSKRPKVEYSEEELKTHISKGTLGKFTVPMLKEACRAYGLKSGLKKQELLEALTKHFQD
In the case of B1, the Kd is reported as 21 nM.
